The target of experiment [1] is nΔ150 KDM1A (lysine-specific demethylase 1A, residues 151–852) (human) (UniProt O60341). The experiment can be described thus: enzyme inhibition kinetics.
In experiment [2] the target is full-length histone H3 (H3^1–135), without posttranslational modifications (UniProt P68431). The experiment is described as follows: SPR. (In general: Surface plasmon resonance follows binding to a sensor surface in real time, without labels.)

Take “full-length histone H3 (H3^1–135), without posttranslational modifications (from UniProt P68431 2-136) (natural protein)”: in experiment [1], the Ki (as a rule, the equilibrium dissociation constant of an inhibitor or competing ligand from its target) was 18.9 nM; the Ki app (Henderson plot) came to 103 nM; the Ki app (IC50 against [E]T) worked out at 61.2 nM; the Ki app (Morrison equation) turned out to be 59.1 nM.
Regarding “nΔ150 KDM1A (lysine-specific demethylase 1A, residues 151–852) (from UniProt O60341 151-852) (enzyme)”, in experiment [2], the Kd (commonly a measure of binding affinity in units of concentration) amounted to 9.02 nM, the off-rate constant (koff) (usually the first-order rate constant of dissociation) was determined as 0.00084 s⁻¹ and the kon (usually the rate constant with which the complex forms) is 93000 M⁻¹ s⁻¹.

(Values after PMC4803528.)
